The assay deals with M (non-selective) muscarinic receptor. Conditions: for IC50: read-out: Transporter and Muscarinic Receptor Binding IC50 Muscarinic, Table 2, ten concentrations.

Experimental findings from patent publication US7714023B2, “Treatment or prophylaxis of migraine or headache disorders using citalopram, escitalopram or citalopram metabolites” (priority 2004, dated 2010) are described below.

On to `N#Cc1ccc2c(c1)COC2(CCCN)c1ccc(F)cc1` (racemic) [Racemic didesmethylcitalopram, 3-5-Cyano-1-(4-fluorophenyl)-1,3-dihydro-isobenzofuran-1-yl-propyl amine], for which the “inhibition of [3H]-QNB binding to the nonselective muscarinic receptor” value (at 1 μM) is 12%.

As for `CNCCC[C@]1(c2ccc(F)cc2)OCc2cc(C#N)ccc21` [(R)(−)-Desmethylcitalopram], the IC50 was 15.4 µM.

Consider `N#Cc1ccc2c(c1)CO[C@]2(CCCN)c1ccc(F)cc1` [(R)(−)-Didesmethylcitalopram], for which the IC50 is 34.9 µM.

In the case of `CNCCC[C@@]1(c2ccc(F)cc2)OCc2cc(C#N)ccc21` [(S)(+)-Desmethylcitalopram], the IC50 is 5.29 µM.

As for `N#Cc1ccc2c(c1)CO[C@@]2(CCCN)c1ccc(F)cc1` [(S)(+)-Didesmethylcitalopram], the IC50 was 15.8 µM.

By IC50 is commonly meant the concentration that gives 50% inhibition.
